Assay: Phase I three-way crossover study: safety assessments / adverse events (NCI Common Toxicity Criteria)
Conditions: 5 minutes after completion of intravenous infusion; pre-infusion 115/58 mm Hg

SMILES: NCCCNCCSP(=O)(O)O [Amifostine, S-2-(3-aminopropylamino)ethyl dihydrogen phosphorothioate]
- blood pressure, Subject 1003 (hypotension episode): 99/56

Source: US6573253B2, “Methods for the administration of amifostine and related compounds” (MedImmune Oncology Inc., priority 1997, dated 2003)
